Assay results published in patent publication US11453697B1, “Cyclic di-nucleotide compounds as sting agonists” (Merck Sharp & Dohme Corp., priority 2015, dated 2022).
Like-named read-outs stand apart in the source and are kept apart here.

Tested on: IFN-β secretion in THP1 cells
Test: IFN-β secretion in THP1 cell culture (5 h)
Type: cell-based, human
Protocol: The ability of compounds to stimulate the secretion of interferon-beta from THP1 cells was measured using a human IFN-β AlphaLISA kit (Perkin Elmer, Cat. No. AL265F). The basic protocol is as follows:
The cell viability and count was ascertained using a Beckman Coulter V-Cell XR cell counter. The cells suspension was centrifuged at 200×g for 5 min at RT. […] Subsequent liquid transfers were performed using either a Matrix electronic multichannel pipette or an Agilent Bravo Automated Liquid Handling Platform.
The assay was started by dispensing 40 μL of the previously prepared cell suspension into the wells of the plate containing compounds. After 5 h incubation at 37° C., 5% CO2 in a humidified atmosphere, the plate of cells and compounds was centrifuged at 200×g for 5 min at RT. […] To these supernatant-containing wells was added 10 μL of 5× Anti-Analyte Acceptor beads (50 μg/mL of AlphaLISA HiBlock Buffer) and incubated for 30 min at RT while shaking on an orbital plate shaker. To each well was added 10 μL of 5× Biotinylated Antibody Anti-analyte (5 nM in AlphaLISA HiBlock Buffer) and incubated on an orbital plate shaker for 60 min at RT or overnight at 4° C. To each well was added 25 μL of 2× SA-Donor beads (80 μg/mL in AlphaLISA HiBlock Buffer) and incubated for 30-45 min at RT in the dark while shaking on an orbital plate shaker. The plate was then read on a Perkin Elmer Envision (λex=680 nm, λem=[…]). The percent effect of the AlphaLISA signal at each compound concentration was calculated based on 30 uM cGAMP positive controls and 0.3% DMSO negative controls. The plot of percent effect versus the log of compound concentration was fit with a 4-parameter concentration response equation to calculate EC50 values.
Compounds of the disclosure were evaluated for IFN-β secretion in THP1 cell culture as described above.

[1] = IFN-β secretion in THP1 cell culture, 5 h, compound at 30 μM, percent activation relative to 2′3′-cGAMP

For Nc1nc2c(ncn2[C@@H]2O[C@@H]3COP(=O)(O)OC4[C@@H](COP(=O)(O)OC2C3)O[C@@H](n2cnc3c(N)ncnc32)[C@H]4F)c(=O)[nH]1 (stereo in doubt) [Example 25, 2-amino-9-[(5S,7R,8R,12aR,14R,15S,15aR)-14-(6-amino-9H-purin-9-yl)-15-fluoro-2,10-dihydroxy-2,10-dioxidooctahydro-12H-5,8-methanofuro[3,2-l][1,3,6,9,11,2,10]pentaoxadiphosphacyclotetradecin-7-yl]-1,9-dihydro-6H-purin-6-one], the “% Effect at 30 μM relative to 2′3′-cGAMP” value was 145%.
In the case of Nc1nc2c(ncn2[C@@H]2O[C@@H]3COP(=O)(O)O[C@H]4[C@@H](F)[C@H](n5cnc6c(N)ncnc65)O[C@@H]4COP(O)(=S)O[C@@H]2[C@@H]3F)c(=O)[nH]1 (stereo partly drawn) [Example 289, 2-amino-9-[(5R,7R,8S,12aR,14R,15R,15aR,16R)-14-(6-amino-9H-purin-9-yl)-15,16-difluoro-2,10-dihydroxy-2-oxido-10-sulfidooctahydro-12H-5,8-methanofuro[3,2-l][1,3,6,9,11,2,10]pentaoxadiphosphacyclotetradecin-7-yl]-1,9-dihydro-6H-purin-6-one], the “% Effect at 30 μM relative to 2′3′-cGAMP” value [1] is reported as 58%.
Nc1nc2c(ncn2[C@@H]2O[C@@H]3COP(=O)(O)O[C@H]4[C@H]5OC[C@]4(COP(=O)(O)O[C@@H]2[C@@H]3F)O[C@H]5n2cnc3c(N)ncnc32)c(=O)[nH]1 [Example 20, (5R,7R,8S,12aR,14R,15R,15aS,18R)-7-(2-amino-6-oxo-1,6-dihydro-9H-purin-9-yl)-14-(6-amino-9H-purin-9-yl)-18-fluorohexahydro-14H-15,12a-(epoxymethano)-5,8-methanofuro[3,2-l][1,3,6,9,11,2,10]pentaoxadiphosphacyclotetradecine-2,10(12H)-diolate 2,10-dioxide] was tested, and the “% Effect at 30 μM relative to 2′3′-cGAMP” value [1] was 159%.
Nc1nc2c(ncn2[C@@H]2O[C@@H]3COP(=O)(O)O[C@H]4[C@@H](F)[C@H](n5cnc6c(N)ncnc65)O[C@@H]4COP(=O)(O)O[C@@H]2C3)c(=O)[nH]1 [Example 21, 2-amino-9-[(5S,7R,8R,12aR,14R,15R,15aR)-14-(6-amino-9H-purin-9-yl)-15-fluoro-2,10-dihydroxy-2,10-dioxidooctahydro-12H-5,8-methanofuro[3,2-l][1,3,6,9,11,2,10]pentaoxadiphosphacyclotetradecin-7-yl]-1,9-dihydro-6H-purin-6-one] was tested, and the “% Effect at 30 μM relative to 2′3′-cGAMP” value [1] was 142%.
In the case of Nc1nc2c(ncn2[C@@H]2O[C@@H]3COP(=O)(O)OC4C[C@H](n5cnc6c(N)ncnc65)O[C@@H]4COP(=O)(O)O[C@H]2C3O)c(=O)[nH]1 (stereo partly drawn) [Example 3, (5R,7R,8R,12aR,14R,15aS,16R)-7,14-bis(6-amino-9H-purin-9-yl)-16-hydroxyoctahydro-12H-5,8-methanofuro[3,2-l] [1,3,6,9,11,2,10]pentaoxadiphosphacyclotetradecine-2,10-diolate 2,10-dioxide], the “% Effect at 30 μM relative to 2′3′-cGAMP” value [1] is reported as 149%.
For Nc1nc2c(ncn2[C@@H]2O[C@@H]3COP(=O)(O)O[C@H]4C[C@H](n5cnc6c(N)ncnc65)O[C@@H]4COP(=O)(O)O[C@@H]2[C@@H]3O)c(=O)[nH]1 [Example 1, (5R,7R,8R,12aR,14R,15aS,16R)-7-(2-amino-6-oxo-1,6-dihydro-9-purin-9-yl)-14-(6-amino-9-purin-9-yl)-16-hydroxyoctahydro-12H-5,8-methanofuro[3,2-l][1,3,6,9,11,2,10]pentaoxadiphosphacyclotetradecine-2,10-diolate 2,10-dioxide], the “% Effect at 30 μM relative to 2′3′-cGAMP” value [1] was 154%.
